Among the data in patent publication US20220204649A1 (SYSMEX, published 2022) are Kd values, retold here.

Experiment [1] concerns the target T1, HER2 (UniProt P04626, in part).
T1 construct: also called antigen of the anti-HER2 antibody
As to the kind of experiment: SPR (Biacore 8K), as in Example 1. Here is the method: (§1) Affinity of the prepared variants was measured using Biacore (registered trademark) 8K (GE Healthcare) in the same manner as in Example 1.

Experiment [2] concerns the target T1, HER2. As to the kind of experiment: SPR (Biacore 8K), Example 3, as in Example 1. Here is the method:
as §1
On the technique in general: In SPR one partner is held on a chip, and binding of the other changes the refractive index at the surface.

B1: 82B, 83, 84 variant of humanized anti-HER2 antibody (Fab) (Fab, V domains shown)
VH: [about 120 residues not printed]
VL: DIQMTQSPSSLSASVGDRVTITCRASQDVNTAVAWYQQKPGKAPKLLIYSASFLYSGVPSRFSGSRSGTDFTLTISSLQPEDFATYYCQQHYTTPPTFGQGTKVEIKR
notes: Kabat 83 is already Arg in the wild-type heavy chain; also called Heavy chain 82B, 83, 84 variant
A word on the Kd: it is the equilibrium constant for the complex coming apart. Read a low Kd as a tighter complex. Consider B1, for which the dissociation constant (Kd) is 0.0278 nM with HER2 [1] and 0.0606 nM in the experiment with HER2 [2].
